The results in this text go back to patent US9029508 (dated 2015).

By UniProt entry, the sequences of proteins in these tests, tags left out. Chains listed by the source or under a name are the forms on record and can include a tag or linker.
UniProt P15692, other isoform, or with tags, fused parts or gaps: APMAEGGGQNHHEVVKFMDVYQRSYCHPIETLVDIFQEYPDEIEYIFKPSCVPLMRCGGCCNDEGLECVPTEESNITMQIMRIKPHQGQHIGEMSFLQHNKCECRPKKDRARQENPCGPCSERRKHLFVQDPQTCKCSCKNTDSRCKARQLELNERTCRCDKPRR

To fix the notation:
B1: DVD466 VEGF arm (antibody, V domains shown)
VH: EVQLVESGGGLVQPGGSLRLSCAASGFTISDYWIHWVRQAPGKGLEWVAGITPAGGYTYYADSVKGRFTISADTSKNTAYLQMNSLRAEDTAVYYCARFVFFLPYAMDYWGQGTLVTVSS
VL: DIQMTQSPSSLSASVGDRVTITCRASQDVSTAVAWYQQKPGKAPKLLIYSASFLYSGVPSRFSGSGSGTDFTLTISSLQPEDFATYYCQQSYTTPPTFGQGTKVEIKR
B2: DVD525 VEGF arm (antibody, V domains shown)
VH: B1 VH
VL: B1 VL
B3: DVD483 VEGF arm (antibody, V domains shown)
VH: B1 VH
VL: B1 VL
B4: DVD526 VEGF arm (antibody, V domains shown)
VH: B1 VH
VL: B1 VL
B5: DVD502 VEGF arm (antibody, V domains shown)
VH: B1 VH
VL: B1 VL
B6: DVD531 VEGF arm (antibody, V domains shown)
VH: B1 VH
VL: B1 VL
B7: DVD455 VEGF arm (antibody, V domains shown)
VH: B1 VH
VL: B1 VL
B8: DVD490 VEGF arm (antibody, V domains shown)
VH: B1 VH
VL: B1 VL
B9: DVD478 VEGF arm (antibody, V domains shown)
VH: B1 VH
VL: B1 VL
B10: DVD471 VEGF arm (antibody, V domains shown)
VH: B1 VH
VL: B1 VL
B11: DVD519 VEGF arm (antibody, V domains shown)
VH: B1 VH
VL: B1 VL
B12: DVD496 VEGF arm (antibody, V domains shown)
VH: B1 VH
VL: B1 VL
B13: DVD461 VEGF arm (antibody, V domains shown)
VH: B1 VH
VL: B1 VL
B14: DVD495 VEGF arm (antibody, V domains shown)
VH: B1 VH
VL: B1 VL
B15: DVD449 VEGF arm (antibody, V domains shown)
VH: B1 VH
VL: B1 VL
B16: DVD443 VEGF arm (antibody, V domains shown)
VH: B1 VH
VL: B1 VL
B17: DVD501 VEGF arm (antibody, V domains shown)
VH: B1 VH
VL: B1 VL
B18: DVD456 VEGF arm (antibody, V domains shown)
VH: B1 VH
VL: B1 VL
B19: DVD520 VEGF arm (antibody, V domains shown)
VH: B1 VH
VL: B1 VL
B20: DVD450 VEGF arm (antibody, V domains shown)
VH: B1 VH
VL: B1 VL
B21: DVD472 VEGF arm (antibody, V domains shown)
VH: B1 VH
VL: B1 VL
B22: DVD477 VEGF arm (antibody, V domains shown)
VH: B1 VH
VL: B1 VL
B23: DVD484 VEGF arm (antibody, V domains shown)
VH: B1 VH
VL: B1 VL
B24: DVD507 VEGF arm (antibody, V domains shown)
VH: B1 VH
VL: B1 VL
B25: DVD465 VEGF arm (antibody, V domains shown)
VH: B1 VH
VL: B1 VL
B26: DVD514 VEGF arm (antibody, V domains shown)
VH: B1 VH
VL: B1 VL
B27: DVD513 VEGF arm (antibody, V domains shown)
VH: B1 VH
VL: B1 VL
B28: DVD508 VEGF arm (antibody, V domains shown)
VH: B1 VH
VL: B1 VL
B29: DVD489 VEGF arm (antibody, V domains shown)
VH: B1 VH
VL: B1 VL
B30: DVD462 VEGF arm (antibody, V domains shown)
VH: B1 VH
VL: B1 VL
B31: DVD444 VEGF arm (antibody, V domains shown)
VH: B1 VH
VL: B1 VL
B32: DVD532 VEGF arm (antibody, V domains shown)
VH: B1 VH
VL: B1 VL

The experiment has as its target VEGF (human, UniProt P15692). Put plainly: ELISA. On the technique in general: In an ELISA, binding on a coated surface is turned into a signal by an enzyme label.
As usually defined, the EC50 is the concentration needed to bring the measured effect to its halfway point. Higher therefore signals a less potent agent. On to B1, for which the midpoint of the response, the EC50, lay at 2.61 nM.

Consider B2, for which the EC50 is 21.8 nM.

Take B3: the concentration giving a half-maximal response (EC50) worked out at 46.1 nM. This EC50 is about 2.1-fold higher than that of the molecule before.

Regarding B4, a half-maximal response (EC50) required 96.2 nM.

Consider B5, for which a half-maximal effect (EC50) was put at 3.25 nM.

B6 displayed an EC50 of 60.4 nM.

Consider B7, for which the EC50 came out at 26.7 nM. Compared with the last molecule, the EC50 is about 2.3-fold lower.

On to B8, for which the response was half-maximal at 6.7 nM (EC50).

In turn, B9 displayed an EC50 of 2.72 nM.

In turn, B10 had an EC50 of 30.1 nM. Against the preceding molecule, the EC50 is about 11-fold higher.

In the case of B11, the EC50 came to 77.2 nM.

For the molecule B12, the concentration for a half-maximal effect (EC50) turned out to be 108 nM.

B13 registered an EC50 of 10.4 nM.

As to B14, the concentration for a half-maximal effect (EC50) amounted to 70 nM.

For the molecule B15, it took 15.6 nM to reach a half-maximal effect (EC50).

Turning to B16, the EC50 was 611 nM. Compared with the last molecule, the EC50 is about 39-fold higher.

In turn, B17 gave an EC50 of 45.2 nM.

The molecule B18 returned an EC50 of 1.63 nM.

B19 gave an EC50 of 248 nM. Compared with the last molecule, the EC50 is about 150-fold higher.

B20 displayed an EC50 of 12.1 nM.

Turning to B21, the EC50 worked out at 9.22 nM.

The molecule B22 returned an EC50 of 41.7 nM.

Consider B23, for which the midpoint of the response, the EC50, lay at 4.84 nM. This EC50 is about 8.6-fold lower than that of the molecule before.

The molecule B24 gave an EC50 of 34.9 nM.

B25 had an EC50 of 396 nM.

In the case of B26, the EC50 was determined as 67.4 nM.

In the case of B27, a half-maximal effect (EC50) was put at 58.5 nM.

As to B28, the concentration for a half-maximal effect (EC50) is 7.88 nM.

B29 returned a half-maximal effective concentration (EC50) of 181 nM.

In turn, B30 returned an EC50 of 8 nM.

The molecule B31 returned an EC50 of 2.44 nM.

B32: the EC50 was 28.9 nM. Against the preceding molecule, the EC50 is about 12-fold higher.
